Test system: HLA-E
Assay: ELISA of renatured HLA-E binding to biotinylated leader peptide (C3N)
Design: species or system human
Protocol: FIG. 2. Renaturation and restoration of conformation of HLA-E by leader peptides and β2m. ELISA for the interaction of denatured HLA-E or covalent HLA-E-β2 microglobulin fusion protein with biotinylated HLA-A2 leader peptide. 10 μg of denatured recombinant HLAE-β2 microglobulin fusion protein, or denatured HLA-E incubated with biotinylated A2 leader peptide (SEQ ID NO: 50, […]) with or without 10 μg β2 microglobulin in 50 μl buffer A (0.5 mM-Tris pH at 6.6) at 18° C. for two days. The complexes were then added into anti-HLA E antibody coated plate (2 μg/ml) and incubated for 1 hour. After washing three times with 1% BSA PBS, HRP-Avidin (Biolegend #405103, 1:1000) was used to detect bound biotinylated leader peptide.
A conformation capture of canonical/non-canonical peptide (C3N) method to HLA-E is designed to test predicted HLA-E binding peptides. HLA-E canonical and nominal peptides predicted from the python algorithm of Igepredict program and any 9 to 12-mer made collinearly with an overlapping IgE sequence can be tested by a binding assay. As illustrated herein, human HLA-E and β2m fusion construct can be made and collinearly expressed as a fusion protein as shown in FIG. 2. […]

β2m: recombinant human beta 2 microglobulin added externally
peptide binding enhancement compared to HLA-E heavy chain alone: 20%

Source: US11464840B2, “Universal non-classical MHC I vaccines: HLA-E-restricted antigenic peptides as universal vaccines to treat allergy, inflammation, autoimmune and infectious diseases, and cancers” (priority 2019, dated 2022)
